According to PubChem BioAssay AID429 (Emory University Molecular Libraries Screening Center, 2006):
The list shows a part of the results, in another mix than the full data. Activity calls are given as the source filed them.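 How the source made its calls: active means inhibition above 50%; inactive means the rest.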

Target: Heat shock protein HSP 90-alpha (Homo sapiens) (UniProt P07900)
Assay: Hsp90 geldanamycin-site probe displacement – cell lysate, fluorescence polarization, NCI-N417 lysate, primary screen (AID 429);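 further: 0% = tracer plus lysate wells and 100% = tracer alone without lysate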
Conditions: NCI-N417 lysate Hsp90, Cy3B-geldanamycin FP displacement; at 30 µM; stronger effect = higher value

SMILES	inhibition
CN(C)CCOC(=O)C(O)(c1ccccc1)C1CCCCC1 (stereo not drawn)	inactive: -4.6%
Cc1ccccc1NP(C)(=O)Nc1ccccc1C	inactive: -2.41%
CP(=O)(Nc1ccc2c(c1)OCCO2)Oc1ccccc1 (stereo not drawn)	inactive: 4.05%
CCOP(C)(=S)SCC(=O)NC(C)(CC)C(=O)O (stereo not drawn)	inactive: 3.02%
CP(=O)(Nc1ccccc1F)Oc1ccccc1 (stereo not drawn)	inactive: -3.72%
Cc1nc2ccc3ccccc3c2o1.O=[N+]([O-])c1cc([N+](=O)[O-])c(O)c([N+](=O)[O-])c1	inactive: 10.6%
COc1ccccc1OP(C)(=O)Nc1ccc(C)c(C)c1 (stereo not drawn)	inactive: -0.8%
CP(=O)(Nc1ccccn1)Oc1ccccc1 (stereo not drawn)	inactive: 0.8%
CP(=O)(Oc1ccccc1)N1CCOC1=O (stereo not drawn)	inactive: -7.71%
COc1ccccc1OP(C)(=O)Nc1c(C)n(C)n(-c2ccccc2)c1=O (stereo not drawn)	inactive: 3.44%
N#[O+].[C-]#N.[C-]#N.[C-]#N.[C-]#N.[C-]#N.[Fe+2].[Na+].[Na+]	active: 96.5%
CCN(CC)CC(O)COC(=O)C(O)(c1ccccc1)C1CCCCC1 (stereo not drawn)	inactive: -0.44%
CP(=S)(Nn1cnnc1)Oc1ccccc1 (stereo not drawn)	inactive: -3.98%
CCOP(C)(=S)SCC(=O)NC(C)C(=O)O (stereo not drawn)	inactive: -0.45%
COc1ccccc1OP(C)(=O)Nc1ccc(C)cc1 (stereo not drawn)	inactive: 0.4%
Cc1ccc(NP(C)(=O)Oc2ccccc2)c(C)c1 (stereo not drawn)	inactive: -3.04%
Cc1ccc(C)c(NP(C)(=O)Oc2ccccc2)c1 (stereo not drawn)	inactive: -1.17%
Cc1nc2ccc3ccccc3c2s1.O=[N+]([O-])c1cc([N+](=O)[O-])c(O)c([N+](=O)[O-])c1	inactive: -5.16%
